# According to ChEMBL document CHEMBL1130430, “Assessment of solvation effects on calculated binding affinity differences: trypsin inhibition by flavonoids as a model system for congeneric series” (J Med Chem, 1997):
# Biological target: T1, Serine protease 1 (Bos taurus, UniProt P00760)
# T1 sequence (P00760 whole entry): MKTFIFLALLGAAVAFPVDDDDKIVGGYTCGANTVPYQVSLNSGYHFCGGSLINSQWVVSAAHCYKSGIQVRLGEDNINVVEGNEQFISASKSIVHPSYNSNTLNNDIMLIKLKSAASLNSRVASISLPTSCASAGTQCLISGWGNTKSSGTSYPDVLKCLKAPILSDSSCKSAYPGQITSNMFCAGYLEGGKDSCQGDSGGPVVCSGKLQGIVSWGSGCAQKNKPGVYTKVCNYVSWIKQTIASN
# Test: Inhibitory concentration of the compounds against Bovine trypsin enzyme.
smiles,measurement,value
O=c1c(O)c(-c2ccc(O)c(O)c2)oc2cc(O)cc(O)c12 [QUERCETIN],IC50,7.1 µM
